Ab-91 heavy chain CDR variants: yeast mating affinities

From the AlphaSeq antibody data of Engelhart et al. 2022 (doi:10.1038/s41597-022-01779-4), copy in the FLAb collection.

Antigen: PDVDLGDISGINAS, a 14-residue peptide of the SARS-CoV-2 spike HR2 region.

Ab-91 is the parent antibody, in scFv form: VL, then a 15-residue (Gly4Ser)3 linker, then VH. The light chain is unchanged in all variants.
VL: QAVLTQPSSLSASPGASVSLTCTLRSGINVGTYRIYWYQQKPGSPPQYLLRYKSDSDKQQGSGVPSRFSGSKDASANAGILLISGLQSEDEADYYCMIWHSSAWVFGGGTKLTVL
VH: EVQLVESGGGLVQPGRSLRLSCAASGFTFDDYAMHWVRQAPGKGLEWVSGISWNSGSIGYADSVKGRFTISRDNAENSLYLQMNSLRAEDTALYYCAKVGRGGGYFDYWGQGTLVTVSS

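The parent was found by panning a naive human phage display library on the peptide. AAYL51 was designed without a model: most single CDR substitutions and a random sample of double and triple ones. Affinity was read by AlphaSeq, a pooled yeast mating assay with surface-displayed partners. The frequency of each diploid, read from paired DNA barcodes, reflects how well the two displayed proteins bind. A regression on co-assayed BCL2-family reference pairs converts the normalised counts of each replicate to an apparent Kd. Mating was done three times.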

Each variant is given by its three heavy chain CDRs, as the data file delimits them; those of the parent are GFTFDDYAMH, GISWNSGSIGYADSVK, VGRGGGYFDY.
The read-out is the apparent dissociation constant on a log10 scale (nM): the lower, the stronger.
An entry "n.d." has no value in the source: the pair was not observed among the diploids in that replicate. This suggests poor binding but is not conclusive.
As a blank, each scFv also met three strains without target: over library AAYL51, 21% of these pairings were detected, typically at 4.54 and seldom below 3.26. The control count says in how many pairings with the empty strains this scFv gave a signal, with their mean in brackets.

| # | CDR-H1 | CDR-H2 | CDR-H3 | log10 Kd (nM) by replicate | empty controls |
|---|---|---|---|---|---|
| 1 | GFTFDDYAWH | GISWNSGSIGSADSVK | VNRGGGYFDY | n.d. n.d. n.d. | 0/9 |
| 2 | GFTFDDYAMH | GISWNSGSIGYADMVP | VGRYGGYFDY | n.d. n.d. n.d. | 0/9 |
| 3 | GFTFDDYAMH | GISWNSGSIPYADSHK | VGRGGGYLDY | 4.62 4.15 4.31 | 5/9 (5.07) |
| 4 | GFTFDDYAMH | GISWNSASIGYADSVK | CGRGGGYMDY | n.d. n.d. 4.71 | 1/9 (3.89) |
| 5 | GFTFDDYAMH | GISWNSKSIGYADSVK | VGRGGGYIDY | 2.20 2.48 2.20 | 1/9 (4.71) |
| 6 | WFTFDDYKMH | GISWNSGSIGYADSVK | VGRGHGYFDY | n.d. n.d. n.d. | 1/9 (3.79) |
| 7 | GFTTDDYAMH | GISWNLGSIGYADSVK | VGNGGGYFDY | 4.76 n.d. n.d. | 0/9 |
| 8 | IFTFDDYAMH | GISWNSGSIGTADSVK | VGRGGGYFMY | n.d. n.d. n.d. | 0/9 |
| 9 | GFTFDDYAMW | GISWNSGSIGYADIVL | VGRGGGYFDY | n.d. n.d. n.d. | 1/9 (3.06) |
| 10 | GMTFDDYDMH | GISWNSGSIGYADSVK | CGRGGGYFDY | n.d. n.d. n.d. | 0/9 |
| 11 | GFTFDDYAMI | GISWNIGSIGYADSVK | VGRGGGYKDY | n.d. n.d. n.d. | 1/9 (3.89) |
| 12 | GLTFDDYAGH | GISWNSGSIPYADSVK | VGRGGGYFDY | 3.68 n.d. n.d. | 0/9 |
| 13 | GFTFDDYAMH | GISWNSGSLGYADSVK | VGRGWGYFDY | 1.62 1.60 1.21 | 7/9 (5.42) |
| 14 | GFTFDYYATH | GISWNSGSIGNADSVK | VGRGGGYFDY | n.d. n.d. n.d. | 0/9 |
| 15 | GFTFDDYAMV | GISWNSGHIGYADSVK | VTRGGGYFDY | n.d. n.d. n.d. | 3/9 (4.21) |
| 16 | GFTFDDYRMH | GISWNPGSIGYADSVK | VGRGGGYFDC | n.d. n.d. n.d. | 1/9 (4.77) |
| 17 | GFTFDMYAMH | GISWNSGSIGYADSVK | VFRGGGYFDY | 0.65 0.69 0.03 | 5/9 (4.67) |
| 18 | GFTFDDYMMH | GISANKGSIGYADSVK | VGRGGGYFDY | n.d. n.d. n.d. | 0/9 |
| 19 | GFTFDDGAMH | GISWNSGCSGYADSVK | VGRGGGYFDY | 4.25 n.d. n.d. | 5/9 (4.93) |
| 20 | GFTEGDYAMH | GISWNSGSIGYADSVK | VGRGGGYDDY | n.d. n.d. n.d. | 1/9 (2.81) |
| 21 | GFRFDDYAMH | GISWNCGSIGYADSVK | VGRGGYYFDY | 1.91 2.21 1.40 | 1/9 (4.78) |
| 22 | GFTFDDYAMH | GISWNSGSIGYADSVK | VGRDGLYFDS | n.d. 5.25 n.d. | 2/9 (3.15) |
| 23 | GFTFDDYAMH | GHSWNSGSWGYADSVK | VPRGGGYFDY | n.d. n.d. n.d. | 0/9 |
| 24 | GFTFDDYAMH | GISWNDGSIGYADSVK | SGRGGGDFDY | n.d. n.d. n.d. | 0/9 |
| 25 | GFTFDDYAMH | GISWNSGSIGYAIDVK | VGEGGGYFDY | 4.61 n.d. n.d. | 3/9 (4.50) |
| 26 | GMTFDDYAMH | GISWNSGSIGMADSVE | VGRGGGYFDY | n.d. n.d. n.d. | 2/9 (3.04) |
| 27 | GFTFDDYAMH | GISWKSGSIGYADSVK | VGRGCNYFDY | n.d. n.d. n.d. | 2/9 (2.88) |
| 28 | GFTFDDYAMH | GISWNSHSIGYAISVK | VGRGGGYTDY | n.d. 4.45 n.d. | 0/9 |
| 29 | GFTFDDWAMH | GISWCSGSIGYADSVK | VYRGGGYFDY | n.d. n.d. n.d. | 0/9 |
| 30 | GFTFDDYAMH | GISWNIGSIGYADSVK | RGRNGGYFDY | 4.99 n.d. 4.87 | 6/9 (4.79) |
| 31 | GFTFDDYAMH | GISWNSGSIGYADSVV | VGRFGGYFLY | 3.04 3.61 3.74 | 8/9 (4.99) |
| 32 | GFTFDDYAMH | GISWNSGMTGYADSVK | VGRGCGYFDY | 2.95 n.d. 4.80 | 4/9 (4.40) |
| 33 | GFTFDPYAMH | GISWNSGSIGYADAVK | VGRGGGYFDY | n.d. n.d. n.d. | 1/9 (3.25) |
| 34 | GFTFDDYAPH | GISWNSGQIGYADSVK | VGRGGGYEDY | 6.20 n.d. n.d. | 2/9 (4.32) |
| 35 | GFTFDDYAMW | GISWNSGSIGYADSVK | VGRGGGGFDY | 4.68 4.82 5.25 | 7/9 (5.27) |
| 36 | GFTFDDYAMH | GISWNSGSIGYADSVK | VGRIGGYFDY | 4.31 n.d. n.d. | 1/9 (4.15) |
| 37 | GFTFDDYAMH | GISWNSGYIGYADSLK | VGRGGGYFDY | n.d. n.d. n.d. | 2/9 (4.94) |
| 38 | GFTFDDYAMH | GISWNSGSIGYADSVK | VGKGGHYFDY | 3.95 4.15 3.59 | 7/9 (4.76) |
| 39 | GFTFDDYAMH | GISWNEGSIGYADSVT | VGRGGGRFDY | 5.17 4.92 4.83 | 4/9 (4.30) |
| 40 | GFTFDDYAPH | GISWNSGSIGYADSVK | VMRGGDYFDY | n.d. 5.25 n.d. | 2/9 (3.34) |
| 41 | GFTFDDYAMH | GISWNSGSIKYYDSVK | VGRGGGYFVY | 4.95 4.82 n.d. | 2/9 (4.44) |
| 42 | GDTMDDYAMH | GISWNSGSIGYADSVK | VGRGGGYFDV | 1.46 1.58 0.92 | 6/9 (5.23) |
| 43 | GFTFFDYAMH | GISWNSSSIGYADPVK | VGRGGGYFDY | 5.22 3.99 4.57 | 1/9 (4.73) |
| 44 | GFTFHDYAMH | GISWNSGSIGYADSVK | HPRGGGYFDY | 5.19 n.d. 4.53 | 6/9 (4.33) |
| 45 | GFTFDDYAMH | FISWNLGEIGYADSVK | VGRGGGYFDY | n.d. n.d. n.d. | 0/9 |
| 46 | GFTRDDTAMH | GISWNSGSIGYADSVE | VGRGGGYFDY | n.d. n.d. n.d. | 2/9 (4.06) |
| 47 | VFTFDDYAMH | TISWNSGSIGYADSVK | VNRGGGYFDY | n.d. n.d. n.d. | 4/9 (4.98) |
| 48 | GFTFDDYAMH | GISWNSGSIGYADKVK | VPRGGGFFDY | n.d. n.d. n.d. | 4/9 (4.82) |

The opening 5 entries, copied out:

| CDR-H1 | CDR-H2 | CDR-H3 | log10 Kd (nM) by replicate | empty controls |
|---|---|---|---|---|
| GFTFDDYAWH | GISWNSGSIGSADSVK | VNRGGGYFDY | n.d. n.d. n.d. | 0/9 |
| GFTFDDYAMH | GISWNSGSIGYADMVP | VGRYGGYFDY | n.d. n.d. n.d. | 0/9 |
| GFTFDDYAMH | GISWNSGSIPYADSHK | VGRGGGYLDY | 4.62 4.15 4.31 | 5/9 (5.07) |
| GFTFDDYAMH | GISWNSASIGYADSVK | CGRGGGYMDY | n.d. n.d. 4.71 | 1/9 (3.89) |
| GFTFDDYAMH | GISWNSKSIGYADSVK | VGRGGGYIDY | 2.20 2.48 2.20 | 1/9 (4.71) |